Molecular target: T1, D-3-phosphoglycerate dehydrogenase (Homo sapiens, UniProt O43175)
T1 sequence (O43175 whole entry): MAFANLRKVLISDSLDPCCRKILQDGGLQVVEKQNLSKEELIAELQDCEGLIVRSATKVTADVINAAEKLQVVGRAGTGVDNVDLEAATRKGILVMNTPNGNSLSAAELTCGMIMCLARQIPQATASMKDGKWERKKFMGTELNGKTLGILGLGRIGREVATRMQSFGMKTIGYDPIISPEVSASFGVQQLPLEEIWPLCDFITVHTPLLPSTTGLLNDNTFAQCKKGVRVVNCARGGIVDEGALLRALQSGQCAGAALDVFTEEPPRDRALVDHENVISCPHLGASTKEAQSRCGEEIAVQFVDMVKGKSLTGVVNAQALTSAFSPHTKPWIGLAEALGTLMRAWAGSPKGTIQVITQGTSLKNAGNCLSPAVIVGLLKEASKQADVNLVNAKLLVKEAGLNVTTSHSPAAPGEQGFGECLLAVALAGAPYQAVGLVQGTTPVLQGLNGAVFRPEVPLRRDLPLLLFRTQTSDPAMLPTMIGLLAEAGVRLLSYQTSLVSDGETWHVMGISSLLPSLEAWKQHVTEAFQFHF
Assay: Inhibition of human PHGDH by fluorescence based analysis

IC50: 57 µM
SMILES: O=C1NC[C@@H](COc2cc3[nH]c(C(=O)N[C@H](CO)c4ccc(C(=O)O)cc4)cc3cc2Cl)O1
